Biological target: Neuronal acetylcholine receptor subunit alpha-3 (Rattus norvegicus, UniProt P04757)

The chains behind the UniProt entries cited, without tags or fusion partners.
UniProt P04757, whole entry: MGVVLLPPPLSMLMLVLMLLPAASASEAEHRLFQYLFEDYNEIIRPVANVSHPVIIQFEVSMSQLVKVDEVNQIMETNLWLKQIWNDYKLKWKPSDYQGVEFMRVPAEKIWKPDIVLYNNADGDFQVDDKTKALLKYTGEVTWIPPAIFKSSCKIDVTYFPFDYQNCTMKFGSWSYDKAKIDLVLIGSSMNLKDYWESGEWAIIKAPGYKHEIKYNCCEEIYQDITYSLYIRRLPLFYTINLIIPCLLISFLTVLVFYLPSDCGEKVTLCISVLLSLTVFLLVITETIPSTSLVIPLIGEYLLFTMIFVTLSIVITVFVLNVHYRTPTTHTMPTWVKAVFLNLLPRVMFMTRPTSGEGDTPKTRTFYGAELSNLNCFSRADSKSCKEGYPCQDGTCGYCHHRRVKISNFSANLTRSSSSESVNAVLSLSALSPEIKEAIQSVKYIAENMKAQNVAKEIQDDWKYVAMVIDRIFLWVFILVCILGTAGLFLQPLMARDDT

For CNC1(C)C2CCC(C2)C1(C)C (stereo unspecified) [Methyl-(2,3,3-trimethyl-bicyclo[2.2.1]hept-2-yl)-amine(Mecamylamine)], the Ki was > 10 µM.

Source: BindingDB's records for doi:10.1124/jpet.104.066787 (Georgetown University, 2004)
